## Antibody variant affinities, Ab-14 light chain, assay 1

Values reported by Engelhart et al. 2022, doi:10.1038/s41597-022-01779-4 (FLAb copy).

Target peptide (SARS-CoV-2 spike, HR2 region): PDVDLGDISGINAS

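The starting antibody came from a phage panning campaign against this peptide. The library (AAYL50) carries one to three amino acid substitutions per variant, with no insertions or deletions. The scFvs were displayed on barcoded MATa yeast, the peptide on MATalpha yeast. The frequency of each diploid, read from paired DNA barcodes, reflects how well the two displayed proteins bind. Read counts were normalised to the haploid input and turned into Kd by a linear fit to BCL2-family pairs of known affinity, for each replicate. There are three technical replicates.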

The variants keep the heavy chain, the linker and the frameworks of Ab-14 (scFv order VH, a 15-residue (Gly4Ser)3 linker, VL).
VH: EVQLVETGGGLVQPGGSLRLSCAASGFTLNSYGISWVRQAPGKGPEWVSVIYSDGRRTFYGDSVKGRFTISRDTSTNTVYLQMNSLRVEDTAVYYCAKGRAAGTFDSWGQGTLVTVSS
VL: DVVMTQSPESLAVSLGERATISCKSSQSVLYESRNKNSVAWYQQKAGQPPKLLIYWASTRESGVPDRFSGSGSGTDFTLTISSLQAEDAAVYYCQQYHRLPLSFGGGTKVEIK

Variants are written as CDR1, CDR2 and CDR3 of the light chain (limits as in the source). Parent: KSSQSVLYESRNKNSVA, WASTRES, QQYHRLPLS.
This list gathers variants with a substitution at S25 (VL, numbered from residue 1).
The Kd shown is the geometric mean over detected replicates; a lower Kd is a better binder.
A pair that was not seen in any replicate is written "no signal"; this usually means weak binding, but a binder can also be missed.
Nonspecific signal, from three strains lacking the peptide, appeared in 18% of pairings of library AAYL50, centred on 15 µM (5% of these signals below 970 nM); values are not corrected for it.

CDR-L1,CDR-L2,CDR-L3,Kd,detected
KASQSVLYHSRNKNSVA,WASTREE,QQYHRLPLS,58 nM,3 of 3
KESQSVLYESRGKNSVA,WASTRYS,QQYHRLPLS,84 nM,3 of 3
NASQSELYESRNKNSVA,WASTRES,QQYHRLPLS,15 nM,3 of 3
KRSQSELYESRNYNSVA,WASTRES,QQYHRLPLS,12 nM,3 of 3
KNSQSNLYESRNKNSVA,WASTRES,DQYHRLPLS,37 µM,1 of 3
KGSQSVLYELRNKNSVA,WASTRES,QQYHRLPIS,19 µM,2 of 3
KQSQSVLYESCNKNSVA,WASTRES,QLYHRLPLS,270 nM,3 of 3
KHSQSVLYESRNKNSVA,WASTREN,QQYHRLPLS,16 nM,3 of 3
KTSQSVLYESRNKGSVA,WFSTRES,QQYHRLPLS,42 µM,2 of 3
KWSQSVLYESRNNNSVA,WASGRES,QQYHRLPLS,no signal,0 of 3
KWSQNVLYESRNKNSVA,WDSTRES,QQYHRLPLS,7.2 µM,3 of 3
KWQQSVLYESRNKNSVA,WASQRES,QQYHRLPLS,5.3 nM,3 of 3
KGSQSVLYESRNKNSVA,WASTRES,QMYHRLPLW,550 nM,3 of 3
KTSQSVLYESRNKNSVA,WASTRES,QQNHREPLS,7.2 nM,3 of 3
KQSQIVLYESRNTNSVA,WASTRES,QQYHRLPLS,no signal,0 of 3
KCSQSVLYHSRRKNSVA,WASTRES,QQYHRLPLS,130 nM,3 of 3
KGSQSVLYESRNKNSKA,WASTRED,QQYHRLPLS,no signal,0 of 3
KCPQSVLYESRNKNSVA,WASTRES,QQYIRLPLS,5.5 nM,3 of 3
KHEQSVLYESRNKNSVA,GASTRES,QQYHRLPLS,670 pM,3 of 3
KCSQSVLYESRNKNSWA,WASTRES,QQYHRLVLS,6.6 µM,2 of 3
KESQSVLYESRNKNSSA,WAVTRES,QQYHRLPLS,1.6 µM,2 of 3
KISQSVLYESRFKNSVA,LASTRES,QQYHRLPLS,no signal,0 of 3
KNSQSVLYESRNKNSVA,WASTREP,QQYCRLPLS,560 nM,1 of 3
KGSQSVLYESRNKNSVA,WDSWRES,QQYHRLPLS,4.8 µM,1 of 3
KTGQSVLYESRNKNSVA,WAFTRES,QQYHRLPLS,290 nM,3 of 3
KTSQSVLMESRNKNSVA,WASTWES,QQYHRLPLS,no signal,0 of 3
KHSQSVLYESRNKNRVA,WASTRES,QQYHRLPLV,670 nM,2 of 3
KASQSVLYESRNKNSVA,WASDRES,QQPHRLPLS,no signal,0 of 3
KRSMSVLYESRNKNSVA,WISTRES,QQYHRLPLS,no signal,0 of 3
KYSQSVLYESRNKNHVA,NASTRES,QQYHRLPLS,790 pM,3 of 3
KVSQSALYESRNKNSVA,WASTRES,QQYHRLPLV,1.8 nM,3 of 3
KDSQSVLYESRNKNSVA,WASTRES,QQYHPLPLI,15 nM,3 of 3
KCSQSVLYESRNKNSVA,WAKTRES,QQYHRIPLS,120 nM,3 of 3
KLSQSVLYESRNKNSVA,WPSTRES,QQYHRLPLS,250 nM,3 of 3
KIIQSVLYESRNKDSVA,WASTRES,QQYHRLPLS,16 nM,3 of 3
KISQSLLYESRNKNSVA,WASTLES,QQYHRLPLS,4.4 nM,3 of 3
MYSQVVLYESRNKNSVA,WASTRES,QQYHRLPLS,53 µM,1 of 3
KLSQSVSYESRNKNSVA,WASTRES,QQYHRLPPS,3.1 nM,3 of 3
KVSQSVLYESRNKNSVA,WASTRES,QQYHFKPLS,11 µM,3 of 3
KQSQSVLYESRNKNQVA,WASTRES,QQYHRLPLS,28 nM,3 of 3
KFSQSVLYESRNKNSVA,WASTRES,QQYHRLPLS,3.4 nM,3 of 3
STSQSVLYESRNKNSVC,WASTRES,QQYHRLPLS,no signal,0 of 3
KESQSVLYESRNKNSVA,WASTRES,QQYRRLPLS,38 nM,3 of 3
KHSQSVLYESRNKNSVA,WASSRES,QQYHRLPIS,510 nM,1 of 3
KPSQSVLYESDNKNSVA,WPSTRES,QQYHRLPLS,39 µM,1 of 3
KMSISVLYESRNKNSVA,WASTREF,QQYHRLPLS,no signal,0 of 3
WASQSVLYESRNKNSVA,WASTRKS,QQYHRLPLS,6.2 µM,1 of 3
WNSQSVLYESRNKNSVA,WASTRES,QQEHRLPLS,5.1 µM,1 of 3
KHSTSVLYESRNKNSVA,WASTRES,QQYTRLPLS,9.4 nM,3 of 3
KKSQSVLYESRNKNSVA,WASTDES,QQYHRLPLS,no signal,0 of 3
KDEQSVLTESRNKNSVA,WASTRES,QQYHRLPLS,21 nM,3 of 3
KCSQSVLYEYRNKNKVA,WASTRES,QQYHRLPLS,no signal,0 of 3
KQSQSVLYESHNKNSVA,WLSTRES,QQYHRLPLS,no signal,0 of 3
KISQSVLYESRNKNSVA,WASTRES,QQLHRLPIS,no signal,0 of 3
HHSQSVLYESRNKNSVA,WASTRES,QQYHRLPLS,17 nM,3 of 3
KTSQSVGYESRNKNSVA,WASTRES,QQVHRLPLS,4.7 nM,3 of 3
KWSQSVLYESRNKNRVA,WASTRES,QQYHQLPLS,95 nM,3 of 3
KFSQSVLYESRNKNSVI,WASTRES,QQYHRLPLS,9.1 µM,2 of 3
KDSQSVLYESRNKNSVA,WASERES,QQYHRLPLP,79 µM,2 of 3
KASQSFLYESRNKNRVA,WASTRES,QQYHRLPLS,11 µM,1 of 3
KESQSVLYESENKNSVA,WASTRES,QQAHRLPLS,no signal,0 of 3
KWSQSVLYESRNKNSQA,WASTRES,QQYHRLPLS,23 µM,3 of 3
KTSQEVVYESRNKNSVA,WASTRES,QQYHRLPLS,16 nM,3 of 3

The first 3 entries again:

CDR-L1	CDR-L2	CDR-L3	Kd	detected
KASQSVLYHSRNKNSVA	WASTREE	QQYHRLPLS	58 nM	3 of 3
KESQSVLYESRGKNSVA	WASTRYS	QQYHRLPLS	84 nM	3 of 3
NASQSELYESRNKNSVA	WASTRES	QQYHRLPLS	15 nM	3 of 3

Parent in this assay: reference entry 4.4 nM, copy in this library 48 nM.